We go through 1 compound from publication PMC8224802 (Pharmaceutics, 2021).

Series [1] can be described thus: Blood-to-plasma concentration ratio (rat whole blood). The settings on record: RPG 5 μM alone, 37 °C, read-out: RB (blood-to-plasma concentration ratio). Type of series: in vitro ADME. The protocol:
(§1) The blood-to-plasma concentration ratio (RB) of RPG was determined as described previously. Briefly, 1 mL of fresh blood was spiked with either RPG alone or in combination with QCT, yielding a final concentration of 5 μM for both compounds, and then incubated at 37 °C for 60 min. A plasma sample was obtained by centrifugation of the blood sample at 2000× g for 5 min. The concentrations of RPG in 50 μL of the plasma samples were determined using a validated high-performance liquid chromatography (HPLC) method.

Series [2] is described as follows: Blood-to-plasma concentration ratio (human whole blood). The series is classed as in vitro ADME. The note with it: RPG 5 μM alone, 37 °C, read-out: RB (blood-to-plasma concentration ratio). The protocol:
as §1

A short description of series [3]: In vitro microsomal metabolism of RPG (disappearance) in HLM. The series is classed as in vitro ADME, human. The settings on record: HLM 0.3 mg/mL, 1–500 μM RPG, Michaelis–Menten fit. Here is the method: The concentration-dependent disappearance of RPG in the RLM and HLM was evaluated to investigate the kinetics of the hepatic CYP-mediated metabolism of RPG. A microsomal reaction mixture consisting of microsomes (0.3 mg/mL), 1 mM NADPH, 50 mM phosphate buffer, and 1–500 μM RPG in distilled water (DW) was prepared, at a total volume of 200 μL. At 0, 30, and 60 min after starting the metabolic reaction, a 50 μL aliquot of the incubation mixture was sampled and transferred to a clean 1.5-mL microcentrifuge tube containing 150 μL of ice-cold acetonitrile to terminate the metabolic reaction. Following centrifugation at 15,000× g for 10 min, 150 μL of the resultant supernatant was obtained and the concentration of RPG in the sample was determined using the HPLC method.
A single-site Michaelis–Menten Equation was simultaneously fitted to the substrate (RPG) concentration ([S]; μM) as follows versus initial metabolic rate (V; pmol/min/mg protein):(2) V= Vmax × [S]/Km+[S] where Vmax and Km are the maximal metabolic rate and Michaelis–Menten constant, respectively. The intrinsic metabolic clearance (CLint) was calculated as Vmax/Km. […] The type of inhibition of QCT on the hepatic metabolism of RPG was determined graphically using a Dixon plot. […]

A short description of series [4]: In vivo intravenous pharmacokinetic study of RPG without or with QCT in rats. Also noted: species or system Sprague-Dawley rats. The note with it: CLH divided by QH 50–80 mL/min/kg. The protocol: (§2) Rats were anesthetized via intramuscular injection of 10 mg/kg zoletil. The femoral vein and artery of the rats were cannulated using a polyethylene tube (BD Medical, Franklin Lakes, NJ, USA). After recovery from anesthesia, a single intravenous or oral dose (0.4 mg/kg) of RPG with or without a single simultaneous intravenous dose (25 mg/kg) or oral dose (100 mg/kg) of QCT was administered to the rats. The vehicle solutions for the intravenous and oral doses were composed of PEG 400 and aqueous 0.3% CMC solution (50:50 v/v). […] After centrifugation of the blood sample at 2000× g at 4 °C for 5 min, 120 μL of the resulting supernatant (plasma) was obtained and the concentration of RPG in the sample was determined using the HPLC method.
(§3) Non-compartmental analysis (WinNonlin, version 3.1, NCA200 and 201; Certara, Inc., Princeton, NJ, USA) was conducted to estimate the following pharmacokinetic parameters: total area under the plasma concentration–time curve from time zero to time infinity (AUC); total body clearance (CL, calculated as dose/AUC); terminal half-life (t1/2); and apparent volume of distribution at steady state (Vss). For comparison, the extent of absolute oral bioavailability (F; expressed as percent of dose administered) was calculated by dividing the dose-normalized AUC after oral administration by the dose-normalized AUC after intravenous injection. […]

The nature of series [5]: In vivo oral pharmacokinetic study of RPG without or with QCT in rats. The note with it: Sprague-Dawley, rat, plasma, 0.4 mg/kg, RPG 0.4 mg/kg oral, RPG alone. The protocol: as §2, §3
The nature of series [6]: Prediction of clinical herb-drug interaction by the basic (simple static) model. Details: species or system human. The note with it: clinical prediction from in vitro data.

Molecules are shown by their SMILES. Values joined by “and” are separate entries in the source; they are usually repeats but may differ in a detail not shown here. Equal values may be shown once.

As to `CCOc1cc(CC(=O)N[C@@H](CC(C)C)c2ccccc2N2CCCCC2)ccc1C(=O)O` [RPG, Repaglinide], the results for the blood plasma ratio at 60 min, 5 μM in series [1] and in series [2] were 0.869 ± 0.043 and 0.847 ± 0.021, respectively. Further, the Michaelis constant (Km) in series [3] was 43 µM and 42.8 µM. Besides, the “Hepatic extraction ratio (EH)” value in series [4] is listed as 0.114–0.182. This compound had an AUC in series [5] of 428 ng·h/mL. Further, the “R, predicted ratio of the AUC of RPG in the presence and absence of QCT (1 + Imax,u / Ki)” value in series [6] is recorded as 1.03–1.54.
